AlphaSeq binding of Ab-95 light chain variants to a spike HR2 peptide

Values reported by Engelhart et al. 2022, doi:10.1038/s41597-022-01779-4 (FLAb copy).

Binding partner: SARS-CoV-2 spike HR2 peptide, sequence PDVDLGDISGINAS.

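AAYL52 was designed without a model: most single CDR substitutions and a random sample of double and triple ones. The scFvs were displayed on barcoded MATa yeast, the peptide on MATalpha yeast. Mating (16 h, 30 °C) was followed by selection of diploids and sequencing of their barcodes. A regression on co-assayed BCL2-family reference pairs converts the normalised counts of each replicate to an apparent Kd. Each pool was mated in three replicate cultures.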

Ab-95 is the parent antibody, in scFv form: VH, then three GGGGS repeats, then VL. The heavy chain is unchanged in all variants.
VH: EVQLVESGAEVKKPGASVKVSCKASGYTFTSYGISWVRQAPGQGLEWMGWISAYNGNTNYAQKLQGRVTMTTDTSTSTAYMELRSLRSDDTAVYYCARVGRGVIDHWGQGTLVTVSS
VL: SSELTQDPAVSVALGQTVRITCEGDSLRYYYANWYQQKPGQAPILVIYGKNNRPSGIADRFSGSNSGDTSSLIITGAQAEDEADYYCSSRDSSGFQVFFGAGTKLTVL

Each variant is given by its three light chain CDRs, as the data file delimits them; those of the parent are EGDSLRYYYAN, GKNNRPS, SSRDSSGFQVF. Values are log10 of the apparent Kd in nM; lower means stronger binding. A mean of the replicates is given; it leaves out those without a signal. "no signal" means that the variant was in the library but no mating with the target was seen in any replicate; the authors take this as a sign of poor binding, and no number exists. Background: pairings of library AAYL52 with three empty control strains gave a value in 28% of cases (median 3.91, 5th percentile 2.90). Values in that range, when seen in few replicates, are hard to tell from nonspecific mating. In this assay the parent's reference entry averaged 2.31; its copy inside this library read 2.25.

CDR-L1 | CDR-L2 | CDR-L3 | log10 Kd (nM), mean | replicates with signal
FGDSLRYYYAN | GWNNRPS | SSRDSSGFHVF | 5.29 | 1 of 3
EGDSLRYYDYN | GKNNRPS | YSRDSSGFQVF | 2.98 | 3 of 3
DGDSLRHYYAN | GKNNRPS | SSRDESGFQVF | 1.80 | 3 of 3
EVDSLRYTYAN | GKNNRPS | SSRDNSGFQVF | 2.77 | 3 of 3
EGDSLRYYYAN | GKNDRSS | QSRDSSGFQVF | 3.13 | 3 of 3
EGDSLRYYRGN | GKCNRPS | SSRDSSGFQVF | 4.30 | 2 of 3
EWDSLRYYYAN | GKNNRPS | SSEDSSGFQDF | 4.02 | 3 of 3
EGDSLRYYYAN | RENYRPS | SSRDSSGFQVF | no signal | 0 of 3
EGDSLRYPYAN | GKNLRPS | SSRDSSGFWVF | 3.02 | 3 of 3
EGDSLRYYYAN | GENNRPS | WSRDSSFFQVF | 2.90 | 2 of 3
EGDSLRYPYAN | GMNNRPS | SFRDSSGFQVF | 2.24 | 3 of 3
EGDSLRYYYAD | GKNNRPS | SSRDSSYFQVF | no signal | 0 of 3
WGDSLRYYYAN | GKNNRPS | SSRDSSGNQWF | 3.68 | 2 of 3
NGDSLRYYYAN | GKNNRPW | SSRRSSGFQVF | 4.08 | 2 of 3
EGYSLRYYYAN | GKNNRPS | SSRDLSGFQGF | 2.93 | 2 of 3
EGDSLNYYYAN | GKNNLPE | SSRDSSGFQVF | 2.46 | 3 of 3
EQDSLRYYYAN | GKNNRPS | SSRDSSGHQVA | 3.74 | 2 of 3
FGDSLRYYYAN | TKNNRPS | SSRDSSGFFVF | 4.96 | 2 of 3
EGDSLRYYYAN | GKNKRPS | HSRDSHGFQVF | 2.97 | 3 of 3
EGDSLRYYYAN | QKNIRPS | WSRDSSGFQVF | 3.64 | 2 of 3
EGDALRYYYAN | GKNNTPS | SSRDMSGFQVF | 4.27 | 3 of 3
EGDSLNYYYAN | GKNQRPS | SSRDSTGFQVF | 1.59 | 3 of 3
EGDSLTYGYAN | GKNNRPS | SSRDSSGFQQF | 2.50 | 3 of 3
EGDSLRYYHAN | EKNNRPS | SSRDSSGFQGF | 1.95 | 3 of 3
EGDSFRFYYAN | GINNRPS | SSRDSSGFQVF | 5.18 | 1 of 3
EGDDLRYYYAN | GKNNIPS | SSRLSSGFQVF | 3.81 | 2 of 3
EGDSLRYYYAL | GKNNRPV | SSRDSSGFQVW | 3.76 | 1 of 3
EGDILRYYYAN | GKNNRPS | SSRDSSGCPVF | 3.79 | 2 of 3
EGDCLRYYYAN | GKNNRPS | SSRDSIGFYVF | 3.91 | 2 of 3
EGDSLRYYKAN | IKNNRPS | SSRDGSGFQVF | 3.45 | 3 of 3
EGDSYRYYYAN | GKSNRPS | SSRDLSGFQVF | 5.36 | 1 of 3
EGDSLRYYYLN | GKNNRPS | SGRDWSGFQVF | no signal | 0 of 3
EGVSLRYYYLN | GKNNRPS | SSRDSSFFQVF | no signal | 0 of 3
EGDSLRYYWAN | GKNNRPS | PMRDSSGFQVF | 3.36 | 3 of 3
EGPSLRYYYAN | GKNNRPS | ASRDSSGFDVF | 3.03 | 3 of 3
EGKSLRYYYAN | GKNNERS | SSRDSSGFQVF | 3.63 | 3 of 3
EGDSLRYYYAN | GKNNRPS | FSRDSFGFQVF | 3.01 | 3 of 3
AGPSLRYYYAN | GKNNRPS | SSRDSSGCQVF | 2.17 | 3 of 3
EGDSLRYYYAN | GKPNRPS | SKRDSSGFQPF | 3.40 | 1 of 3
EGDCLRYYYAN | GKYNRPS | SSRDSSGFGVF | 4.02 | 1 of 3
EGDSLRYYIAN | GKNNRPS | SSRHSIGFQVF | 4.58 | 2 of 3
EGDSLRYMYAN | GKNNRPS | SSRDSSVFQTF | 4.25 | 1 of 3
EGDSPRYYYAG | GENNRPS | SSRDSSGFQVF | no signal | 0 of 3
EGDSLDYYYAN | GKNNHPS | SSRDSSGEQVF | 3.35 | 1 of 3
EGDSLRYYYAN | GKNNRPS | SSMLSSGFQVL | 4.19 | 2 of 3
EGDSNRYYIAN | GKNNRPS | SFRDSSGFQVF | 3.63 | 2 of 3
EGDSMIMYYAN | GKNNRPS | SSRDSSGFQVF | 3.74 | 1 of 3
EGDSDRYYYQN | GKNNRPY | SSRDSSGFQVF | 4.00 | 2 of 3
ELDSLRYYYAN | GKNNRIS | WSRDSSGFQVF | no signal | 0 of 3
EGDSLRYYYAN | GINNRPS | SSRDSSGAQSF | 3.13 | 3 of 3
EGDSLRVYYAN | GKNNRPS | SSRDWSGFQVF | no signal | 0 of 3
EGKSLRYYYAN | GKNNRPS | SSWDSSGFQVV | 3.76 | 3 of 3
EGDSLGYYYCN | DKNNRPS | SSRDSSGFQVF | 3.74 | 3 of 3
EGDSLRYYYAN | GKKNRQS | SSRLSSGFQVF | 4.24 | 2 of 3
EGDSLRMYYMN | GKANRPS | SSRDSSGFQVF | no signal | 0 of 3
EVDSLWYYYAN | GKNNRPS | SSRDQSGFQVF | 3.40 | 1 of 3
EGDSLRYYYAN | GKCNRPS | SQRFSSGFQVF | 3.82 | 3 of 3
EGDSLRMMYAN | GKNNRNS | SSRDSSGFQVF | 1.69 | 3 of 3
EGDWLRKYYAN | GKNNRPS | SSRDSSGFQVF | no signal | 0 of 3
EGDSLRNYYAN | GYNNRPS | SSRDYSGFQVF | 2.18 | 3 of 3
EGDSERYYYAN | GKNNRPS | SERRSSGFQVF | 5.28 | 1 of 3
HGDDLRYAYAN | GKNNRPS | SSRDSSGFQVF | 1.05 | 3 of 3
EGDSLRYYYAN | GKYNNPS | SSRDMSGFQVF | 3.91 | 3 of 3

The first 7 entries again:

CDR-L1,CDR-L2,CDR-L3,"log10 Kd (nM), mean",replicates with signal
FGDSLRYYYAN,GWNNRPS,SSRDSSGFHVF,5.29,1 of 3
EGDSLRYYDYN,GKNNRPS,YSRDSSGFQVF,2.98,3 of 3
DGDSLRHYYAN,GKNNRPS,SSRDESGFQVF,1.80,3 of 3
EVDSLRYTYAN,GKNNRPS,SSRDNSGFQVF,2.77,3 of 3
EGDSLRYYYAN,GKNDRSS,QSRDSSGFQVF,3.13,3 of 3
EGDSLRYYRGN,GKCNRPS,SSRDSSGFQVF,4.30,2 of 3
EWDSLRYYYAN,GKNNRPS,SSEDSSGFQDF,4.02,3 of 3